We go through two molecules from patent US12570650B2, “6-substituted pyridazine compounds as SMARCA2 and/or SMARCA4 degraders” (Aurigene Oncology Limited, priority 2020, dated 2026).

The chains behind the UniProt entries cited, without tags or fusion partners.
UniProt P51532, whole entry: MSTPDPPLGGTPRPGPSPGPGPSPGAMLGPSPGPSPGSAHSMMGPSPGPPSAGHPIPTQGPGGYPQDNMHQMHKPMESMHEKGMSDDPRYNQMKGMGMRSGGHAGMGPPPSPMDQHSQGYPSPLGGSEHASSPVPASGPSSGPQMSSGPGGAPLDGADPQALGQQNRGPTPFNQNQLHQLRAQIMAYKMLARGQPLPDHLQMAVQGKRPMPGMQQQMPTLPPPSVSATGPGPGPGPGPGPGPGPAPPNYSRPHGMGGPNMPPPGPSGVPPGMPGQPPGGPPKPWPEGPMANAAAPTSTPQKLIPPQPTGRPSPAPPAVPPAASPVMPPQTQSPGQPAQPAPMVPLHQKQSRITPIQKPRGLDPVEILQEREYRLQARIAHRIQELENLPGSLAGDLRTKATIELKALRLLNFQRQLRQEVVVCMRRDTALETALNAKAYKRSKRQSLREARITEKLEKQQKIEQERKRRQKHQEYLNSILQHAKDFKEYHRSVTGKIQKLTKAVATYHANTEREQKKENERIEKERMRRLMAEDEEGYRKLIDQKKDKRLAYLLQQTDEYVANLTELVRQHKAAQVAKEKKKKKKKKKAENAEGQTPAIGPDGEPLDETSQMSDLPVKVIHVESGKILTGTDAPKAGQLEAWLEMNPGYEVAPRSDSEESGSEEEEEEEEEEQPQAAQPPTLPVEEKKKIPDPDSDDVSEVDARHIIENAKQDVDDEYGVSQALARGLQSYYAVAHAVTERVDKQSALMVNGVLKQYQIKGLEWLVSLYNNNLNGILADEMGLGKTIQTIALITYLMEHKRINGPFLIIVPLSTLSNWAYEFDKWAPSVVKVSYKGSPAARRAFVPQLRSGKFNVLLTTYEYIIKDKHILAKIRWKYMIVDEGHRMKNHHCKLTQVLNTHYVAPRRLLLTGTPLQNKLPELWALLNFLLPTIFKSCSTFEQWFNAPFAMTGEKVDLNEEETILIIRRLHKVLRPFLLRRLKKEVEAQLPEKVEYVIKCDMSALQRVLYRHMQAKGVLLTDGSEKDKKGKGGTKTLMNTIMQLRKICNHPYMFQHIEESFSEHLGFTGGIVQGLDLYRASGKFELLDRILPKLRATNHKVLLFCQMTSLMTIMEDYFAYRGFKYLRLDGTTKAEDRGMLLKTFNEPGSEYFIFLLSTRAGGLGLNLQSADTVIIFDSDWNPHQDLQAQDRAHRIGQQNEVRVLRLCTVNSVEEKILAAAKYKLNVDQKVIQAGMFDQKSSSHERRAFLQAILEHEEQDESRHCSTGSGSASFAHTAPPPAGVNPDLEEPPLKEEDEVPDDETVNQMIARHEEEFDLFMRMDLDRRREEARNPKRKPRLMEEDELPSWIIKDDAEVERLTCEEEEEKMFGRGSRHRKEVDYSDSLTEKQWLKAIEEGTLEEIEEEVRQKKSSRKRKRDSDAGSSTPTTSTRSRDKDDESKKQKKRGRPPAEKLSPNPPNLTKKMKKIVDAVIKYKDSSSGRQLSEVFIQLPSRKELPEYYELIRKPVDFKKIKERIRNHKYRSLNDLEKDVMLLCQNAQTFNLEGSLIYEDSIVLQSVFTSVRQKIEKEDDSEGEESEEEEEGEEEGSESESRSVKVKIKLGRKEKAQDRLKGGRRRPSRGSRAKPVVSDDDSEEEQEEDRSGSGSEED

The target of this test is T1, SMARCA4 (Homo sapiens, UniProt P51532).
T1 construct: Determination of SMARCA2 and SMARCA4 Degradation in VCaP Cells by Western Blot; endogenous in cells; host or cells: VCaP (ATCC CRL-2876)
Nature of the test: SMARCA4 degradation in VCaP cells by Western blot. To be noted: 16 hours. Type of test: cell-based. On the procedure:
On the third day, compounds of present invention were added to cells from 10 mM stocks made in DMSO (Sigma Cat no. D2650). Each concentration of compound was tested with DMSO not exceeding final percentage of 0.3 in the cells. […] Equal amount of protein was loaded on SDS PAGE gel for electrophoresis. […] Percentage of SMARCA2 or SMARCA4 degradation was calculated using formula % Degradation=100−(normalized band intensity in treated sample/normalized band intensity in DMSO sample)*100.

For the molecule `Cc1ncsc1-c1ccc([C@H](C)NC(=O)[C@@H]2C[C@@H](O)CN2C(=O)C(c2cc(OCCOc3ccc(-c4cnnc(-c5ccccc5O)c4)cc3)no2)C(C)C)cc1` (mixture of isomers) [Compound 42, (2S,4R)-4-hydroxy-1-(2-(3-(2-(4-(6-(2-hydroxyphenyl)pyridazin-4-yl)phenoxy)ethoxy)isoxazol-5-yl)-3-methylbutanoyl)-N-((S)-1-(4-(4-methylthiazol-5-yl)phenyl)ethyl)pyrrolidine-2-carboxamide], the “Percent degradation (at 100 nM) SMARCA4” value worked out at 0%.
In the case of `Cc1ncsc1-c1ccc([C@H](C)NC(=O)[C@@H]2C[C@@H](O)CN2C(=O)[C@@H](NC(=O)CN2CCC(Nc3ccc(-c4cnnc(-c5ccccc5O)c4)cc3)CC2)C(C)(C)C)cc1` [Compound 45, (2S,4R)-4-hydroxy-1-((S)-2-(2-(4-((4-(6-(2-hydroxyphenyl)pyridazin-4-yl)phenyl)amino)piperidin-1-yl)acetamido)-3,3-dimethylbutanoyl)-N-((S)-1-(4-(4-methylthiazol-5-yl)phenyl)ethyl)pyrrolidine-2-carboxamide] it was 57%.
